Patent US4803223A (priority 1985, dated 1989)

Tested on: CD2F1-strain mice
Experiment: Acute toxicity in mice
Settings: i.p., 20 days, Litchfield and Wilcoxon
Protocol: A CACU solution prepared as in Test Example A was injected intraperitoneally into CD2F1 -strain mice (male) having a body weight of about 20 g in an amount of 2512, 1995, 1585, 1259, 1000 and 994 mg/kg, and the acute toxicity test was carried out for 20 days. The acute toxicity value (LD50) was determined by the method of Litchfield and Wilcoxon, and found to be 1025 mg/kg.

In the case of `O=C(NCCCl)Nc1ccc(N(CCCl)CCCl)cc1`, the “acute toxicity value (LD50)” value is reported as 1025 mg/kg.
